Measured values reported in patent US20250099952A1, “MICROFLUIDIC DEVICE AND USES THEREOF” (CASE WESTERN RESERVE UNIVERSITY, priority 2019, published 2025).

Test system: RBCs
Settings: 3 h at 37° C. incubation with 5 μM and 50 μM mercuric ion
Description: Mercury is a toxic heavy metal that binds to RBC membranes with high affinity and results in RBC hemolysis. Mercuric ions induce membrane conformational changes and impair RBC deformability.

Question: mercuric ion was tested. Which “RBC morphology by scanning electron microscopy” value did it give?
Answer: The value was “underwent morphology changes and turned into echinocytes”.
